This series has as its system Artemia salina. The experiment in a line: Accumulation test and arsenic content test, use of only artemia (Reference Example). The note with it: artemia bred 1 day, artificial seawater 25° C.
Setting [1] is: Addition of inorganic arsenic (iAs 10 ppm), no glutathione.
Where [2] appears, read: Both inorganic arsenic (10 ppm) and glutathione (10 ppm).

2 compounds from patent US20080145918A1, “Method for the Detoxification of a Hazardous Compound” (published 2008) can be followed below.

As for `C[As](=O)(O)O`, the “Arsenic species content in artemia, dry weight” value is, setting by setting: under setting [1], 0 μgAs/g dry; under setting [2], 0 μgAs/g dry.
Consider `C[As](C)(=O)O`, for which the “Arsenic species content in artemia, dry weight” value runs as follows: under setting [1], 4.512 μgAs/g dry; under setting [2], 4.375 μgAs/g dry.
